Experimental data from patent US11674136B2, “DNA-templated macrocycle library” (President and Fellows of Harvard College, priority 2018, dated 2023).

Sequences of proteins named here, by UniProt entry; tags and fusion partners are left off. Residues count along the entry.
UniProt P14735, 42-1019 limits assumed: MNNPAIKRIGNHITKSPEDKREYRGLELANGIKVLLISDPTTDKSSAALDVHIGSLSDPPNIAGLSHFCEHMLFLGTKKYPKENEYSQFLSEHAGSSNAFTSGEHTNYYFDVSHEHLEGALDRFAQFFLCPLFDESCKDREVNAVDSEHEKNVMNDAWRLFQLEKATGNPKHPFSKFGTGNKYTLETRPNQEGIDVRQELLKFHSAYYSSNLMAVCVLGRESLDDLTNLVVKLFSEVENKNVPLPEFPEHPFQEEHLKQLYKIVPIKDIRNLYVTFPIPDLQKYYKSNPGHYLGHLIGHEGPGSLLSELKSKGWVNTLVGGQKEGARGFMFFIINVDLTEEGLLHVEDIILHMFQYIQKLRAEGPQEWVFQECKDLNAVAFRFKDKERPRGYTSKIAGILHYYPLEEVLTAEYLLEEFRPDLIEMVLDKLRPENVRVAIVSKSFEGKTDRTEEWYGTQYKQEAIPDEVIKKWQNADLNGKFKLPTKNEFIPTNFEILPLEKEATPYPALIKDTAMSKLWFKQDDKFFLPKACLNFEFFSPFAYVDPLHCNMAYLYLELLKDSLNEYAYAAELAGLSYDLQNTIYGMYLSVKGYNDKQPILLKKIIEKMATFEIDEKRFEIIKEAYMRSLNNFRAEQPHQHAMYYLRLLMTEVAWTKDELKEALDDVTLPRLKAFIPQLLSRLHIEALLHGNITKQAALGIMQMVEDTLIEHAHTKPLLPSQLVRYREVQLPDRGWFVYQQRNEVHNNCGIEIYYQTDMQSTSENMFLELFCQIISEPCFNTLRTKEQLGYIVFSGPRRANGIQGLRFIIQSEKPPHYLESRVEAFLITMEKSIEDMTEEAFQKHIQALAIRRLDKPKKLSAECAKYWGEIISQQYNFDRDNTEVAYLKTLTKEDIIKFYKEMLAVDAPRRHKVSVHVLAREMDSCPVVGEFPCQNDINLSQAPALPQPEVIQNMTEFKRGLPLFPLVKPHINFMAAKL

Molecular target: Recombinant human N-His6-IDE42-1019 (Homo sapiens, UniProt P14735)
Test: IDE inhibition assay with fluorogenic decapeptide substrate Mca-RPPGFSAFK(Dnp)-OH
Details: fluorogenic decapeptide cleavage assay; for IC50: read-out: IDE IC50, DNA-free macrocycle
Experimental: Recombinant human N-His6-IDE42-1019(R&D Systems) was assayed using the fluorophore/quencher-tagged peptide substrate Mca-RPPGFSAFK(Dnp)-OH (R&D) according to the manufacturer's instructions and using the recommended buffer 50 mM Tris, pH 7.5, 1 M NaCl (fluorophore Mca=(7-methoxycourmarin-4-yl)acetyl and quencher Dnp=2,4-dinitrophenyl). The enzyme mixture (48 μL) was transferred to a 96-well plate and combined with 2 μL of inhibitor in DMSO solutions, as 3-fold dilution series. The mixtures were allowed to equilibrate for 5 minutes and the enzymatic reaction was started by addition of substrate peptide in assay buffer (50 μL), immediately mixed by orbital shaking, and monitored on a fluorescence plate reader (excitation at 320 nm, emission at 405 nm). […] Inhibitor 6bK was used as a positive control in each assay, and error bars correspond to the standard error.

SMILES	IC50 [nM]	IDE inhibition, potency in words (comparison with reference inhibitors)
C[C@@H]1NC(=O)/C=C\C(=O)NCC[C@H](C(=O)NCCOCCN)NC(=O)[C@@H](Cc2ccc(C(=O)c3ccccc3)cc2)NC(=O)[C@H](CC2CCCCC2)NC1=O	400	
C[C@@H]1NC(=O)/C=C\C(=O)NCc2ccccc2C[C@@H](C(=O)NCCOCCN)NC(=O)[C@@H](Cc2ccc(C(=O)c3ccccc3)cc2)NC(=O)[C@H](CC2CCCCC2)NC1=O	400	
C[C@@H]1NC(=O)/C=C/C(=O)NCC[C@H](C(=O)NCCOCCN)NC(=O)[C@@H](Cc2ccc(C(=O)c3ccccc3)cc2)NC(=O)[C@H](CC2CCCCC2)NC1=O	2000	
NCCOCCNC(=O)[C@H]1Cc2ccccc2CNC(=O)C[C@@H](Cc2ccccc2)NC(=O)[C@H](Cc2ccco2)NC(=O)CN2CCN(CC2)C(=O)/C=C/C(=O)N1	> 100000	
NCCOCCNC(=O)[C@H]1CCNC(=O)/C=C/C(=O)N[C@H](Cc2ccccc2C(F)(F)F)C(=O)N[C@@H](CC2CCCCC2)C(=O)N[C@H](Cc2ccc(C(=O)c3ccccc3)cc2)C(=O)N1	20000	weakly active
C[C@@H]1NC(=O)/C=C/C(=O)NCc2ccccc2C[C@@H](C(=O)NCCOCCN)NC(=O)[C@@H](Cc2ccc(C(=O)c3ccccc3)cc2)NC(=O)[C@H](CC2CCCCC2)NC1=O	600	
